AlphaSeq binding of Ab-14 light chain variants to a spike HR2 peptide

All variants were tested on one target, the spike HR2 peptide PDVDLGDISGINAS (SARS-CoV-2).

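Phage display of a naive human antibody library on the peptide gave the parent. Designed CDR sequences, proposed from the first random library and measured here. Group labels follow the data file (Ctrl: baseline library sampled from a position-specific scoring matrix, with some repeated check sequences; Rand: our label for a block that the file lists under HC and that is probably the random mutants of the ten best first-round binders; GP: Gaussian process model; HC: hill climbing; Gen: genetic algorithm; Gibbs: Gibbs sampling; a sequence that several methods proposed may carry one label only). The assay is AlphaSeq: two haploid yeast populations carry antibody and antigen on their surface. After mating in shaken culture at 30 °C for 16 h, diploids were selected and their barcode pairs sequenced. Each replicate has its own calibration line, from reference interactions of the BCL2 family. The assay was run in six technical replicates.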

The variants keep the heavy chain, the linker and the frameworks of Ab-14 (scFv order VH, three GGGGS repeats, VL).
VH: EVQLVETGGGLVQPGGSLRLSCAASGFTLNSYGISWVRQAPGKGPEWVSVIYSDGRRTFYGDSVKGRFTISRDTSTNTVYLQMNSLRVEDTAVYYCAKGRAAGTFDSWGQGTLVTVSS
VL: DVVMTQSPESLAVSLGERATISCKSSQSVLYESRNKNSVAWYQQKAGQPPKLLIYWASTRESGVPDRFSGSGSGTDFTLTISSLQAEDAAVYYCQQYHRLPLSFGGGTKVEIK

Each variant's VL is given in full.
Variants here have at most six changes.
Values are apparent Kd, the geometric mean of the replicates that gave a signal; lower means stronger binding.
Order: sorted from the lowest average up.

* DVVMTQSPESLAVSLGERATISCKVSQSVLYESRNKNAVAWYQQKAGQPPKLLIYEASTRESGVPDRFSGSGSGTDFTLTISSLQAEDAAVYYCQQYHRLPLSFGGGTKVEIK [GP_Gen]: 350 pM (6 of 6 replicates; controls 0 of 18)
* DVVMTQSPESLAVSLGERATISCKVSQSWQYGSRNKNSVAWYQQKAGQPPKLLIYNASQRESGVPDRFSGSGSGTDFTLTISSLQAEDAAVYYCQQYHRLPLSFGGGTKVEIK [GP_Gibbs]: 460 pM (6 of 6 replicates; controls 0 of 18)
* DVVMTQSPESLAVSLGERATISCKFSQSMLYESRNKNSVAWYQQKAGQPPKLLIYDASTRESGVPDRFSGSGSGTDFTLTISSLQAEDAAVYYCQQYHRLPLSFGGGTKVEIK [GP_Gen]: 560 pM (6 of 6 replicates; controls 2 of 18)
* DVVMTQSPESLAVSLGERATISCKLQQSDLYESRNKNSVAWYQQKAGQPPKLLIYSASTRESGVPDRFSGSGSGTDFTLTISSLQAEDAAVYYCQQYHRLPLSFGGGTKVEIK [GP_Gen]: 600 pM (6 of 6 replicates; controls 2 of 18)
* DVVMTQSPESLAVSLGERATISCKLEQGDLMESRNKNSVAWYQQKAGQPPKLLIYHASTRESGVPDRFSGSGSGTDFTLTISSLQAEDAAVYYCQQYHRLPLSFGGGTKVEIK [GP_Gibbs]: 630 pM (6 of 6 replicates; controls 0 of 18)
* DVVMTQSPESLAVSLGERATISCKFSQWYLYESRTKNSVAWYQQKAGQPPKLLIYNASTRESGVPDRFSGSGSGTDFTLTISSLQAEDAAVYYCQQYHRLPLSFGGGTKVEIK [GP_HC]: 800 pM (6 of 6 replicates; controls 0 of 18)
* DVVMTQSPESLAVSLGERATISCHSSPSVLYESRNKNSVAWYQQKAGQPPKLLIYGASTRESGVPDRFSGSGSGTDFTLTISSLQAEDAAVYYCQQYHRLPLSFGGGTKVEIK [GP_HC]: 1.2 nM (6 of 6 replicates; controls 0 of 18)
* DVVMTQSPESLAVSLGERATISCKLPQQWLYESRNKNSVAWYQQKAGQPPKLLIYSASTRESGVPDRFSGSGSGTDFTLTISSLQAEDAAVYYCQQYHRLPLSFGGGTKVEIK [GP_HC]: 1.3 nM (6 of 6 replicates; controls 2 of 18)
* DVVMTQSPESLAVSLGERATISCKSSWSELYESRNKNSVAWYQQKAGQPPKLLIYEASTRESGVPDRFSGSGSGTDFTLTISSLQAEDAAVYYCQQYHRLPLSFGGGTKVEIK [GP_Gen]: 1.5 nM (6 of 6 replicates; controls 1 of 18)
* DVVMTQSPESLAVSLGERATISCKSKQSVLYESSNKNSVAWYQQKAGQPPKLLIYEASTRESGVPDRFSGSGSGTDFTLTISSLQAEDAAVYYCQQYHRLPLSFGGGTKVEIK [Ctrl]: 1.6 nM (6 of 6 replicates; controls 3 of 18)
* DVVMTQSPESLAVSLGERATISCKFSQSVLYESWNKNHVAWYQQKAGQPPKLLIYWASTRESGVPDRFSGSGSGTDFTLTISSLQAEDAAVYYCQQYHRLPLSFGGGTKVEIK [Ctrl]: 2.7 nM (6 of 6 replicates; controls 0 of 18)
* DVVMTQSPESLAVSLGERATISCKLSQSWLYEDRVKNSVAWYQQKAGQPPKLLIYNASTRESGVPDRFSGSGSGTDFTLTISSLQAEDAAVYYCQQYHRLPLSFGGGTKVEIK [GP_HC]: 3.6 nM (6 of 6 replicates; controls 1 of 18)
* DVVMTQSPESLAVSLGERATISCKSSQSPLYESRNKNSVAWYQQKAGQPPKLLIYSASTRELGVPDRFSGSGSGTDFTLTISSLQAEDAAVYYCQQHHRLPLSFGGGTKVEIK [Ctrl]: 4.7 nM (6 of 6 replicates; controls 0 of 18)
* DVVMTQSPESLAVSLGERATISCKSSMSVLYESRNLNSVAWYQQKAGQPPKLLIYAASTRESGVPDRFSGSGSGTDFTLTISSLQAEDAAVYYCQQYHRLPLSFGGGTKVEIK [Ctrl]: 5.6 nM (5 of 6 replicates; controls 0 of 18)
* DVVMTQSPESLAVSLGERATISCKISQSVLYESRNVNSVAWYQQKAGQPPKLLIYWASERESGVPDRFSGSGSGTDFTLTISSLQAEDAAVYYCQQYHRLPLSFGGGTKVEIK [Ctrl]: 9.3 nM (6 of 6 replicates; controls 2 of 18)
* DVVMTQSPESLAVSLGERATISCKLPQSVPYESRNKNSVAWYQQKAGQPPKLLIYDASTRESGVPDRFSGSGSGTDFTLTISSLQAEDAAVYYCQQYHRLPLSFGGGTKVEIK [GP_Gen]: 21 nM (6 of 6 replicates; controls 1 of 18)
* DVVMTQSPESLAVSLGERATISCKMSQTVLYEARNKNSVAWYQQKAGQPPKLLIYWASTRESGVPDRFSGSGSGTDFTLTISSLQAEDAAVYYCQQYHRLPLSFGGGTKVEIK [Ctrl]: 26 nM (6 of 6 replicates; controls 1 of 18)
* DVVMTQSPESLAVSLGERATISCKFGGSVLYESRNKNSVAWYQQKAGQPPKLLIYWASTRNRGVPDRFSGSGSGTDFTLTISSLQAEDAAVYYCQQYQRLPLSFGGGTKVEIK [Ctrl]: 31 nM (6 of 6 replicates; controls 2 of 18)
* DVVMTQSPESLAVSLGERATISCKMSQSWLYESRNKNSVAWYQQKAGQPPKLLIYNGSTRESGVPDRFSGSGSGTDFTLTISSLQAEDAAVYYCQQYHRLPLSFGGGTKVEIK [GP_Gen]: 46 nM (6 of 6 replicates; controls 0 of 18)
* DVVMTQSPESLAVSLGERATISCKDSQSVLLESRNKNSVAWYQQKAGQPPKLLIYWASTREEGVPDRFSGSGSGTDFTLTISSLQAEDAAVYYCQQYHYLPLSFGGGTKVEIK [Ctrl]: 820 nM (2 of 6 replicates; controls 1 of 18)
* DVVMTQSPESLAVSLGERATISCKSSQSVLFESRNKNSVAWYQQKAGQPPKLLIYDASTKESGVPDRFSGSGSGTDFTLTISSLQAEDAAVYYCQQYHRWPLSFGGGTKVEIK [Rand]: 3.7 µM (1 of 6 replicates; controls 2 of 18)

2 of these entries, quoted again:

VL	group	Kd	detected	empty controls
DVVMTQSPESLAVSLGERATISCKSSQSPLYESRNKNSVAWYQQKAGQPPKLLIYSASTRELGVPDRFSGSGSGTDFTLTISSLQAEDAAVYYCQQHHRLPLSFGGGTKVEIK	Ctrl	4.7 nM	6 of 6	0 of 18
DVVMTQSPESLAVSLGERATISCKLSQSWLYEDRVKNSVAWYQQKAGQPPKLLIYNASTRESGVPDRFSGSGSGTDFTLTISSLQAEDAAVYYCQQYHRLPLSFGGGTKVEIK	GP_HC	3.6 nM	6 of 6	1 of 18

The parent sequence was in this pool as ten entries: three were never detected, three once, and four in most replicates, with averages from 2.2 nM to 240 nM.
Values of this round are not directly comparable with the first-round values of the same sequences.
Background: pairings of all light chain designs with three empty control strains gave a value in 4% of cases (median 430 nM, 5th percentile 38 nM). Values in that range, when seen in few replicates, are hard to tell from nonspecific mating. For each scFv, signals with the empty controls are counted beside the result.
The authors' rule: three or more of the six replicates give a measured affinity, fewer mean a poor binder.

Values reported by Li et al. 2023, doi:10.1038/s41467-023-39022-2 (FLAb copy).